# Earlier results, collected in article PMC8795197, “Safety and activity of WX-0593 (Iruplinalkib) in patients with ALK- or ROS1-rearranged advanced non-small cell lung cancer: a phase 1 dose-escalation and dose-expansion trial” (Signal Transduction and Targeted Therapy, 2022).
# Where two headings read alike, the source gives them in different places.
# Legend:
# [1] = system: patients treated with ALK TKIs; conditions: cited from earlier work
# [2] = system: NSCLC patients with ALK or ROS1 rearrangement; conditions: cited from earlier work
# [3] = Grades 1 and 2 adverse reactions
# [4] = ALK+ NSCLC (protocol background)
# [5] = ROS1-rearranged NSCLC, phase I, 50 patients
# [6] = first-line, randomized phase III vs platinum-double chemotherapy
smiles,measurement,setting,value
CCc1cc2c(cc1N1CCC(N3CCOCC3)CC1)C(C)(C)c1[nH]c3cc(C#N)ccc3c1C2=O [Alectinib],asthenia,[1]; [3],11%
same,constipation,[1]; [3],15%
same,fatigue,[1]; [3],14%
same,myalgia,[1]; [3],17%
same,"dose reduction due to TEAEs, % of patients",[1],16%
C[C@@H](Oc1cc(-c2cnn(C3CCNCC3)c2)cnc1N)c1c(Cl)ccc(F)c1Cl [Crizotinib],"diarrhea, % of patients",[1],48%
same,ORR,"[2]; ALK rearrangement, prior chemotherapy",around 60%
same,ORR,[2]; [4],60%
same,PFS,[2]; [4],8-10 months
same,ORR,"[2]; FIH phase I, 82 patients with ALK-rearranged advanced NSCLC, ALK inhibitor naive",57%
same,PFS at 6 months (estimated),"[2]; FIH phase I, 82 patients with ALK-rearranged advanced NSCLC",72%
same,ORR,[2]; [5],72%
same,median PFS,[2]; [5],19.2 months
same,ORR,[2]; [6],74%
same,PFS,[2]; [6],10.9 months
